Values of other authors, collected in US20110301098A1, “TREATMENT FOR INTIMAL HYPERPLASIA AND RELATED CONDITIONS” (priority 2006, published 2011).
Like-named read-outs stand apart in the source and are kept apart here.

Molecular target: T1, C5 (Homo sapiens, UniProt P01031)
T1 construct: host or cells: patients (circulating endogenous C5)
Details: cited from earlier work

[1] = acute myocardial infarction, PCA group

pexeluzimab: humanised monoclonal single-chain antibody fragment directed against C5 (Alexion Pharmaceuticals, Inc.)
infarct size [1]: no reduction in infarct size | mortality [1]: reduction in mortality | benefit as adjunctive therapy (acute myocardial infarction, in conjunction with thrombolytics): No benefit | risk of death or myocardial infarction (patients undergoing bypass grafts only): did not reduce the risk | risk of death or myocardial infarction (patients undergoing grafts with or without valve surgery): did reduce some risk
